Only a part is listed here, and it is no random draw. Some of these compounds have results that are not shown, active ones among them. Results filed as inconclusive are left out. The source made the active and inactive calls. Calls follow the shape of the dose curve; as a rule, active = well fitted activation curve with a large enough effect; inconclusive = small, poorly fitted or top-dose-only effect; inactive = no such curve, though single readings can be large or run the other way.

The assay can be described thus: qHTS Assay for Agonists of the Thyroid Stimulating Hormone Receptor: Activators of Intracellular cAMP Concentrations in Parental HEK 293. Also: % of control where 0% means no effect; nearly all actives have a fitted effect of over 55% in size. Particulars: parental HEK293 CNG cAMP sensor, membrane potential fluorescence; at 11.4 µM unless noted. (In general: qHTS replaces the single test concentration by a dilution series.)
Turning to `CN1CCC[C@H](OC(=O)[C@](O)(c2ccccc2)C2CCCC2)C1`, the activation was inactive: 7.83%. Next, `CN1CC[C@H](OC(=O)[C@](O)(c2ccccc2)C2CCCC2)C1`: inactive: 7.52%.

For `C=C(C)C#C[C@@](O)(C(=O)OC1CCN(C)CC1)c1ccccc1`, the activation is inactive: 9.65%. In the case of `CN(C)c1cccc(C(=O)NCC2(N(C)C)CCCCC2)c1`, the activation was inactive: 7.17% [at 57.1 µM].

The values above are taken from PubChem BioAssay AID938 (National Center for Advancing Translational Sciences (NCATS), 2007).
